This assay addresses human URAT1 (Homo sapiens, UniProt Q96S37). The format is cell-based.

Chains of the proteins cited; added tags and fusions are not shown. Lines headed by an entry give the natural chain unless they say otherwise; changes in a name come on top.
UniProt Q96S37: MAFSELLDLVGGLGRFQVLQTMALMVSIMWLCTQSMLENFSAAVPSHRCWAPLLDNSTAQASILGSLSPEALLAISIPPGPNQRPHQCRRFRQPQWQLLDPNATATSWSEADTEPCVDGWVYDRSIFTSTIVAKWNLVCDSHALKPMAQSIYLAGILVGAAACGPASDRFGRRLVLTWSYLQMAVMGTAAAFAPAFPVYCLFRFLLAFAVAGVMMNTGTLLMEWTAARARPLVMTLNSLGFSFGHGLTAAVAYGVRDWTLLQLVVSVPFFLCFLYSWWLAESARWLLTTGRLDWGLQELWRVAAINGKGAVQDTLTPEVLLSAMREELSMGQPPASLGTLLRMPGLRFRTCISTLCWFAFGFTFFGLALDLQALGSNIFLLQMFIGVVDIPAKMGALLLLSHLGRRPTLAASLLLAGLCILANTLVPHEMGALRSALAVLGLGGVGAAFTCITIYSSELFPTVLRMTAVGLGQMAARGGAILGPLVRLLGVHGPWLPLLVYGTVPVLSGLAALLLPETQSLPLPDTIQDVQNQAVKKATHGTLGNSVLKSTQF

pIC50: −log10 of the molar value.

As a reminder, the pIC50 is the IC50 on a negative log10 scale, so that one unit is a factor of ten. A high value points to a small IC50.

Regarding `O=C(O)CSc1nnc(Br)n1-c1ccc(C2CC2)c2ccccc12` [lesinurad], the pIC50 was 4.61.
